These are literature values, as cited in patent US20110294879A1, “METHOD OF TREATMENT OF FRAGILE X SYNDROME, DOWN'S SYNDROME, AUTISM AND RELATED DISORDERS” (XENOPORT, INC., priority 2010, published 2011).

The subject of the data set is autistic children.

Take `Cc1nc2n(c(=O)c1CCN1CCC(c3noc4cc(F)ccc34)CC1)CCCC2` [risperidone]: the adverse events result was “weight gain, increased appetite, fatigue, drowsiness, dizziness, and drooling”.
